Experimental data from US20180155344A1, “TRICYCLIC PIPERIDINE COMPOUNDS” (ACTELION PHARMACEUTICALS LTD, priority 2015, published 2018).

Molecular target: T1, human TPH1 (Homo sapiens, UniProt P17752)
T1 sequence (P17752 1-444): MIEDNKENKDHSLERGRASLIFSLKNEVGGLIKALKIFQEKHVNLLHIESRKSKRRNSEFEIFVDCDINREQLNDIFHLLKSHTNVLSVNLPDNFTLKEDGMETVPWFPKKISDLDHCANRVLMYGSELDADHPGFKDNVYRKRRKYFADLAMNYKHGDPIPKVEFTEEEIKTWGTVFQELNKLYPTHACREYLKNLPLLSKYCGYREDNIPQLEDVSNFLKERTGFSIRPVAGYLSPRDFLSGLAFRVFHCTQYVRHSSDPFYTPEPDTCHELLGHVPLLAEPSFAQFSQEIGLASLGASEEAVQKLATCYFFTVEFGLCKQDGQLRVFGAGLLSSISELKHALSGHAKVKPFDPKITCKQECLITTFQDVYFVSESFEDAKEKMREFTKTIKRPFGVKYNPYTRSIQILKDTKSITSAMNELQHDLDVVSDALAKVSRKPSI
Assay: biochemical
From the text: Biochemical In Vitro Assay Using Fluorescence Readout
To generate the enzyme, full length human TPH1 is cloned into the plasmid pET20b(+) (Novagen) and expressed in E. coli. The bacterial cells are ruptured by sonication on ice and the lysate is cleared by centrifugation. The resulting protein in the pellet is re-extracted and TPH1 is purified from the obtained lysate by affinity chromatography using a pterin cosubstrate analog immobilized to the resin of the column. The protein is further purified by size exclusion chromatography to remove protein aggregates. The activity of TPH1 is determined by using a fluorescence assay. The enzyme activity assay is carried out at 15° C. with atmosphere oxygen for the duration of 60 minutes in a volume of 64 μl. […] The amount of 5-hydroxy-L-tryptophan produced during the enzymatic reaction is determined by fluorescence readout. Fluorescence, as determined at 540 nm when excited at 300 nm wavelength, increases proportionally to the 5-hydroxy-L-tryptophan formed. […] Fluorescence is measured for each well and the fluorescence at 540 nm wavelength is compared to the fluorescence of the vehicle in place of compound. […] The calculated IC50 values may fluctuate depending on the daily biochemical assay performance. […]

Question: With `CCc1cc(N2CC2)ccc1OCC(=O)N1CCc2nc3cc(C(F)(F)F)ccn3c2C1c1ccc(OC)c(OC)c1` (stereo not shown) [Example 3.1.34, 2-(4-(aziridin-1-yl)-2-ethylphenoxy)-1-(1-(3,4-dimethoxyphenyl)-7-(trifluoromethyl)-3,4-dihydroimidazo[1,2-a:5,4-c′]dipyridin-2(1H)-yl)ethan-1-one] as the compound, how does the IC50 read?
Answer: The IC50 was 36 nM.
